In US20240016245A1, “ANTIMICROBIAL FACEMASK” (BMG (British Medical Group) Limited, priority 2020, published 2024):

Assay: Compatibility of surfactants with copper sulfate solutions for coating fabric
Type: physicochemical

- precipitation from copper sulfate solutions / solution suitable for coating: causing precipitation
Compound: CCCCCCCC/C=C\CCCCCCCC[N+](C)(C)[O-] [N,N-dimethyloleyl N-oxide]
